According to patent US12128037B2, “Sulfasalazine salts, production processes and uses” (priority 2017, dated 2024):

Experiments:
[1] = Solubility in water or FaSSIF-V2 medium (Example 8, HPLC)
[2] = hemi salts with metal counterions, trihydrates; cited from earlier work
[3] = tested on: Caco-2 cell monolayers; assay: Transport across Caco 2 cell monolayer; format: in vitro ADME; conditions: direction ab, 180 min incubation
Description: Experiments were performed in triplicate.

| Compound | pH ([1]; FaSSIF-V2, saturated solution) | pH ([1]; Water, saturated solution) | pH ([1]; diluted in phosphate Buffer pH 6.8 (Water column)) | solubility compared to sulfasalazine [2] | Cumulative drug transport ([3]; 50 μg/mL) | Cumulative drug transport ([3]; 200 μg/mL) |
| --- | --- | --- | --- | --- | --- | --- |
| CNCC(O)C(O)C(O)C(O)CO.O=C(O)c1cc(N=Nc2ccc(S(=O)(=O)Nc3ccccn3)cc2)ccc1O [Form A meglumine salt] | 6.4 | 7.5 | 6.0* | – | – | – |
| O.O.O.O=C([O-])c1cc(/N=N/c2ccc(S(=O)(=O)Nc3ccccn3)cc2)ccc1O.O=C([O-])c1cc(/N=N/c2ccc(S(=O)(=O)Nc3ccccn3)cc2)ccc1O.[Ca+2] [calcium (as its trihydrate)] | – | – | – | less soluble than sulfasalazine | – | – |
| O=C(O)c1cc(/N=N/c2ccc(S(=O)(=O)Nc3ccccn3)cc2)ccc1O [sulfasalazine, 2-hydroxy-5-[2-[4-[(2-pyridinylamino)sulfonyl]phenyl]diazenyl]-benzoic acid] | 6.3 | 5.9 | – | – | 1.14 μg/cm^2 | 3.81 μg/cm^2 |

Marks after values point to notes of the source that are not given here.
